Consider 63 molecules from published antibiotic growth screens (doi:10.1038/s41589-023-01349-8).

SMILES strings stand for the structures. This is one part of the list.

The test system of this assay is A. baumannii ATCC 17978. Nature of the assay: relative growth (fraction of control); higher = less inhibition. The settings on record: 50 µM.
`CC(=O)c1c(O)c(C)c(O)c(Cc2c(O)c3c(c(C(=O)/C=C/c4ccccc4)c2O)OC(C)(C)C=C3)c1O`: the relative growth was 0.992.
For `CCOc1cc(C=O)ccc1O` the value was 1.02; for `Cl.Clc1ccc(C(OCCN2CCCCC2)c2ccccc2)cc1` (stereo not drawn), 0.82; for `NCC1(c2c(F)cc(F)cc2F)CC1`, 1.
For `Cl[C@H]1[C@H](Cl)[C@@H](Cl)[C@@H](Cl)[C@H](Cl)[C@H]1Cl` the value was 1.04; for `Oc1ccc(Cl)cc1Cc1cc(Cl)ccc1O`, 0.153; for `Cl.NNCc1ccccc1`, 0.947.
For `CC(O)CN1CCN(CC(=O)[O-])CCN(CC(=O)[O-])CCN(CC(=O)[O-])CC1.[Gd+3]` (stereo not drawn) the value was 1.11; for `C[C@@H]1O[C@@H](O[C@H]2C[C@@H](O)[C@]3(CO)C4C(CC[C@]3(O)C2)[C@@]2(O)CC[C@H](C3=CC(=O)OC3)[C@@]2(C)C[C@H]4O)[C@H](O)[C@H](O)[C@H]1O.O.O.O.O.O.O.O.O` (stereo partly drawn), 0.899.
`COc1ccccc1C1(N)CC1` returned a relative growth of 1.03.
`CCC(N)C(O)c1ccc(O)c(O)c1.Cl` (stereo not drawn) returned a relative growth of 0.998.
`CCN(Cc1ccc(Cl)nc1)/C(=C/[N+](=O)[O-])NC`: the relative growth is 0.966.
Then `CCCC(C)(COC(N)=O)COC(=O)NC(C)C` (stereo not drawn), with 1.05; and `COC(C)(C)CCC[C@H](C)C/C=C/C(C)=C/C(=O)OC(C)C`, with 1.07.
Take `CI.O=C(COc1ccc(Cl)cc1Cl)OC[C@H]1CCCN2CCCC[C@@H]12`: the relative growth came to 0.946.
For `CCC1(C)CC(=O)NC(=O)C1` the value was 0.988; for `C/C=C(\C)C(=O)O[C@H]1C[C@@H](OC(C)=O)[C@@]2(C(=O)OC)CO[C@H]3[C@@H](O)[C@@](C)([C@]45O[C@@]4(C)[C@H]4C[C@@H]5O[C@H]5OC=C[C@@]54O)[C@H]4[C@]1(CO[C@]4(O)C(=O)OC)[C@@H]32`, 0.996.
For `Nc1nc(Cl)ncc1[N+](=O)[O-]` the value was 1.12.
On to `N[C@@H](Cc1ccccc1)c1ccc2c(c1)OCCO2`, for which the relative growth came out at 1.04.
Take `C#CC(C)(O)CC` (stereo not drawn): the relative growth is 0.969.
In turn, `COc1cc2c(cc1O)CC1c3c(cc(O)c(OC)c3-2)CCN1C` (stereo not drawn) showed a relative growth of 0.94.
With `COc1cc(OC)c(OC)cc1C=O`, the relative growth is 0.881.
`C[C@]12CCC3C(CC[C@H]4C[C@H](O)CC[C@]34C)C1CCC2=O` (stereo partly drawn): the relative growth was determined as 0.911.
Then `Clc1ccc(C(c2ccc(Cl)cc2)C(Cl)(Cl)Cl)cc1`, with 1.34.
For `Cc1ccc(C=C2C(=O)NC(=O)NC2=O)cc1` the value was 0.982; for `CC(C)(C)NCC(O)c1ccccc1Cl.Cl` (stereo not drawn), 1.06; for `C[C@]12CCC(=O)C=C1CCC1C2CC[C@@]2(C)C1CC[C@@H]2O` (stereo partly drawn), 1.07.
Then `CN1CC[C@@]2(C)c3cc(O)ccc3N(C)[C@@H]12.O=C(O)/C=C/C(=O)O`, with 1.12.
`Cn1cc(C(=O)Nc2nn[nH]n2)c2ccccc21` gave a relative growth of 0.957.
For `CC(COc1ccc(Oc2ccccc2)cc1)Oc1ccccn1` (stereo not drawn) the value was 1.22; for `CC1(C)C(=O)C=C[C@@]2(C)C1=C(O)C(=O)[C@]1(C)[C@@H]2CC[C@@]2(C)[C@H](c3ccoc3)C[C@H]3O[C@]321`, 1.27; for `CC(=O)O[C@H]1CC[C@@]2(C)C(=CCC3C2CC[C@]2(C)C(=O)CCC32)C1` (stereo partly drawn), 1.11.
Then `Cc1nc([N+](=O)[O-])c(N2CCNCC2)[nH]1`, with 1.1.
For `CCOCC(=O)N[C@H]1CCSC1=O` the value was 1.02; for `CCC1(CC)C(=O)NC(=O)NC1=O`, 0.917.
In turn, `CO[C@H]1[C@@H](O)[C@@H](C)O[C@H](O[C@H]2CCC3(C)C4CCC5(C)[C@@H](C6=CC(=O)OC6)CC[C@]5(O)[C@@H]4CC[C@]3(O)C2)[C@@H]1O` (stereo partly drawn) showed a relative growth of 1.02.
On to `C[C@@H]1O[C@@H](O[C@H]2CC[C@]3(C=O)C4CC[C@]5(C)[C@@H](C6=CC(=O)OC6)CC[C@]5(O)C4CC[C@]3(O)C2)[C@H](O)[C@H](O)[C@H]1O` (stereo partly drawn), for which the relative growth was determined as 1.11.
Then `CCC(C)C(=O)O[C@@H]1C[C@@]2(C)[C@H](c3ccoc3)OC(=O)CC23OC2(C)O[C@]14[C@]1(C)[C@@H](CC(=O)OC)C5(C)CC1(O)[C@](O)(C5OC(=O)C1(C)OC1C)[C@@H](OC(C)=O)[C@]34O2` (stereo partly drawn), with 1.27; and `O=C1CCO1`, with 1.11.
Then `Cl.NCC(=O)c1ccccc1`, with 1.04; and `CN1CCc2cc3c(cc2C1O)OCO3.Cl` (stereo not drawn), with 1.07; and `COCCCNC(=O)[C@@]1(Cc2ccccc2CN=[N+]=[N-])N=C(c2ccc(OCCCO)cc2)O[C@H]1c1ccccc1N=[N+]=[N-]`, with 0.913.
Then `CC(CO)NC(=O)C1C=C2c3cccc4[nH]cc(c34)C[C@H]2N(C)C1.O=C(O)/C=C\C(=O)O` (stereo partly drawn), with 1.04; and `CN(C)C(=O)Oc1cc(OC(=O)N(C)C)cc(C(O)CNC(C)(C)C)c1.Cl` (stereo not drawn), with 1.14; and `Cl.O=C1CC[C@@]2(O)[C@H]3Cc4ccc(O)c5c4C2(CCN3CC2CC2)[C@H]1O5`, with 0.963.
`N=C(N)N/N=C/c1ccc2c(c1)OCO2` showed a relative growth of 0.97.
For `CC(C)(C)NCC(O)c1cc(Cl)c(N)c(Cl)c1.Cl` (stereo not drawn) the value was 1.22; for `Cc1cc(C(C#N)c2ccc(Cl)cc2)c(Cl)cc1NC(=O)c1cc(I)cc(I)c1O` (stereo not drawn), 1.41; for `COc1ccc2c(c1OC)C(=O)O[C@@H]2[C@H]1c2cc3c(cc2CCN1C)OCO3`, 1.1.
For `CC(=O)O.Cc1cc2c(C(C)C)c(O)c(O)c(C=O)c2c(O)c1-c1c(C)cc2c(C(C)C)c(O)c(O)c(C=O)c2c1O` the value was 0.784; for `CC1=C(O)C(=O)C=C2C1=CC=C1[C@@]2(C)CC[C@@]2(C)[C@@H]3C[C@](C)(C(=O)O)CC[C@]3(C)CC[C@]12C`, 0.869.
For `CCC1(C2=NCCN2)Cc2ccccc2O1.Cl` (stereo not drawn) the value was 1.11.
Consider `CC[N+]1(C)CCCC(OC(=O)C(O)(c2ccccc2)c2ccccc2)C1.[Br-]` (stereo not drawn), for which the relative growth was 0.945.
For `Cc1ncc(CNC(=O)N(CCCl)N=O)c(N)n1.Cl` the value was 1; for `O=C(NC(=O)c1c(F)cccc1F)Nc1ccc(Cl)cc1`, 1.26.
For `O=C1CCCC2C3CC(CN12)[C@@H]1CCCCN1C3.[O-][Cl+3]([O-])([O-])O` (stereo partly drawn) the value was 0.864; for `COc1cc2c(cc1OC)[C@@H]1C(=O)c3ccc4c(c3O[C@@H]1CO2)CC(C(C)C)O4` (stereo partly drawn), 0.994.
For `COc1ccc(C[C@@H](N)c2ccc(C)cn2)cc1OC` the value was 1.11.
In turn, `CCCCOC(=O)c1ccccc1C(=O)OCCCC` gave a relative growth of 1.18.
For `C=CCc1cc(OC)c2c(c1OC)OCO2` the value was 1.05; for `COc1ccc(C(CN(C)C)C2(O)CCCCC2)cc1.Cl` (stereo not drawn), 0.917.
Then `O=C1NC(=S)NC(=O)C1=Cc1ccccc1`, with 0.887.
For `CC(C)(C#N)O[C@@H]1O[C@H](CO)[C@@H](O)[C@H](O)[C@H]1O` the value was 1.1.
